Test results published in BindingDB's records for doi:10.1016/j.bmcl.2008.08.095 (Sunesis Pharmaceuticals, 2008).

Sequences of proteins named here, by UniProt entry; tags and fusion partners are left off.
UniProt P53350, whole entry: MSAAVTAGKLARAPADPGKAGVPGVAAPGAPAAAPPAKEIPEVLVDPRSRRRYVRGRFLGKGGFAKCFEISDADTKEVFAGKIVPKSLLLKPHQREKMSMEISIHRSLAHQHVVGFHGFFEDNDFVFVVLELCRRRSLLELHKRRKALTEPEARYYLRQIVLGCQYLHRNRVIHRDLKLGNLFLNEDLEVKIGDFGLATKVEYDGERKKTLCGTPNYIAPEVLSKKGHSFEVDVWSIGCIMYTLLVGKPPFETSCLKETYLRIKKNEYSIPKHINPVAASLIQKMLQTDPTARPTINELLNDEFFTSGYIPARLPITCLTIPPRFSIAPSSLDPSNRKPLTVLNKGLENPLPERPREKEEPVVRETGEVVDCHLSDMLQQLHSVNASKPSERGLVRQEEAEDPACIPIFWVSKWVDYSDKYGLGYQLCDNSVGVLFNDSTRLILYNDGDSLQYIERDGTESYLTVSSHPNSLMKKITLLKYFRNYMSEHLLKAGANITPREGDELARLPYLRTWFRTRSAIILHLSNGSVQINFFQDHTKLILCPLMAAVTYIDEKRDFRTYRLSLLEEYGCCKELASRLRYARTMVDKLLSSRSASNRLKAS

Target: Serine/threonine-protein kinase PLK1 (Homo sapiens, UniProt P53350)

- IC50: 0.042 µM
Compound: Cc1nn(-c2cc(Cl)cc(-c3ccccc3C(N)=O)c2)c2cc(N[C@@H](C)c3ccccc3)ncc12 [2-[3-chloro-5-(3-methyl-6-{[(1S)-1-phenylethyl]amino}-1H-pyrazolo[4,3-c]pyridin-1-yl)phenyl]benzamide]
